Laboratory results from PMC5403950, “Mechanism Underlying the Reversal of Drug Resistance in P-Glycoprotein-Expressing Leukemia Cells by Pinoresinol and the Study of a Derivative” (Frontiers in Pharmacology, 2017).

The chains behind the UniProt entries cited, without tags or fusion partners.
UniProt P08183, whole entry: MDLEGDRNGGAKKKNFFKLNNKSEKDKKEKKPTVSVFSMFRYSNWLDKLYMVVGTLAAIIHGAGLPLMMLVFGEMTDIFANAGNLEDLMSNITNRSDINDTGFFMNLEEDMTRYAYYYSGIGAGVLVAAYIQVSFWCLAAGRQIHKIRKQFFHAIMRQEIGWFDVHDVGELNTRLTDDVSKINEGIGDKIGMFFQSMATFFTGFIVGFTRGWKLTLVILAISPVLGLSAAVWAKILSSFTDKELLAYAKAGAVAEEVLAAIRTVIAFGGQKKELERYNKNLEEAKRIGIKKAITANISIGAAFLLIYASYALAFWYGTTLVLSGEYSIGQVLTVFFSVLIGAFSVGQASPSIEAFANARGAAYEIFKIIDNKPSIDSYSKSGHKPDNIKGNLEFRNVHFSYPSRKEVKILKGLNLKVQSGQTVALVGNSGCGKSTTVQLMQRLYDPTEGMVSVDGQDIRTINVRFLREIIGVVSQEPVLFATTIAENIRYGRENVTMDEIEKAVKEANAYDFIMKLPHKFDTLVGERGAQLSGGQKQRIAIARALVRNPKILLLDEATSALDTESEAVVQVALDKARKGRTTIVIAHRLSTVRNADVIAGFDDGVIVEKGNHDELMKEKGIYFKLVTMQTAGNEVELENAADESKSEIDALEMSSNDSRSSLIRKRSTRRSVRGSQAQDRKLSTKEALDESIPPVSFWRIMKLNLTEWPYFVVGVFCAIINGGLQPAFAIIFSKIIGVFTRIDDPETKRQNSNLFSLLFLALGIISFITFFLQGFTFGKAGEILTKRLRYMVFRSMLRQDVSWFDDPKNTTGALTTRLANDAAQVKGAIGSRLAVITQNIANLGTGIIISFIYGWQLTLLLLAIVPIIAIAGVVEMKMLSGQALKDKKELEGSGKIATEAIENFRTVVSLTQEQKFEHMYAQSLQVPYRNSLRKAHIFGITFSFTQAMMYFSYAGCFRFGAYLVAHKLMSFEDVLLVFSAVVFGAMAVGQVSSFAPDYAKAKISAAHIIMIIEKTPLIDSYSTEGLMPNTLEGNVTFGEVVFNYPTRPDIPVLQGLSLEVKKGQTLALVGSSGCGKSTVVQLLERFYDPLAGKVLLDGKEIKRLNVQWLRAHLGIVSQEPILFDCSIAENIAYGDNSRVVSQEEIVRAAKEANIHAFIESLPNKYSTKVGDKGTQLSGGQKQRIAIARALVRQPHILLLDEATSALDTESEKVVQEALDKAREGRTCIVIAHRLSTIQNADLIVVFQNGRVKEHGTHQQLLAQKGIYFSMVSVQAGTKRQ

Columns and labels:
[1] = system: peripheral blood mononuclear cells (PBMC); assay: Cytotoxicity on peripheral blood mononuclear cells (MTT); format: cell-based, human; conditions: PHA 10 μg mL−1, 48 h, confidence limits in brackets
Experimental: The cytotoxicity of 14 and 16 on peripheral blood mononuclear cells (PBMC) was evaluated by MTT assay (Joray et al., [2015]). PBMC were collected from fresh heparinized blood and separated by density gradient centrifugation (Ficoll®) as described by Rennó et al. ([2008]). As the current study required samples from healthy human volunteer donors, ethical approval was provided by the Catholic University of Córdoba Research Ethics Board. Signed informed consents were obtained from donors. […] Absorbance (Abs) and percentage of cytotoxicity were determined as described above and the IC50 values were calculated. The experiment was carried out in two separate stages.

[2] = target: P-gp (Homo sapiens, UniProt P08183); conditions: read-out: IC50 of antagonism of verapamil-stimulated ATPase activity, verapamil 40 μM as activator, confidence limits in brackets

**Q.** With (±)-pinoresinol [Compound 14] as the substance, how does the IC50 [1] read?
**A.** The IC50 was 216 µM.

**Q.** And the IC50 [2]?
**A.** Its IC50 is 20.9 µM.

**Q.** What about the IC50 ([2]; listed as pinoresinol) of the same substance?
**A.** The IC50 was 20.9 µM.

Like-named read-outs stand apart in the source and are kept apart here.
